Test system: human M1 muscarinic receptor, somatostatin receptor 2 and EDG5
Settings: mixture of three receptor strains; incubation with ligands 24 h; FIG. 7B

Question: `C[N+](C)(C)CCOC(N)=O` [carbachol] was tested. Which “detection of the agonist in the receptor mixture” value did it give?
Answer: can also be detected in the mixture

From patent US8642259B2, “Method for identifying substances capable of modulating the activity of a target molecule” (Sanofi-Aventis Deutschland GmbH, priority 2002, dated 2014)
